This test has as its target HIV-1 integrase (Human immunodeficiency virus type 1 group M subtype B, UniProt P12497). The class given is biochemical. On the procedure:
In Vitro Integrase Assay.
Integrase reactions were carried out by adding drugs or an equivalent volume of 100% dimethyl sulfoxide (DMSO; used as the drug solvent) to a mixture of 20 nM DNA and 400 nM integrase in 50 mM morpholinepropanesulfonic acid (pH 7.2), 7.5 mM MgCl2, and 14 mM 2-mercaptoethanol. Reactions were performed at 37° C. for 2 h and quenched by the addition of an equal volume of loading buffer (formamide containing 1% sodium dodecyl sulfate, 0.25% bromophenol blue, and xylene cyanol). […] Dried gels were visualized using a Typhoon 8600 (GE Healthcare, Piscataway, N.J.). Densitometric analyses were performed using ImageQuant 5.1 software from GE Healthcare.

Like-named read-outs stand apart in the source and are kept apart here.

This note sets out measurements from US9676771B2, “Compounds for inhibiting drug-resistant strains of HIV-1 integrase” (priority 2013, dated 2017).

The term IC50 denotes the concentration needed to halve the response being measured.

On to `COC(=O)[C@H](C)Nc1c(C(=O)NCc2ccc(F)cc2F)c(=O)n(O)c2ncccc12` [XZ394, (S)-methyl 2-((3-((2,4-difluorobenzyl)carbamoyl)-1-hydroxy-2-oxo-1,2-dihydro-1,8-naphthyridin-4-yl)amino)propanoat], for which the IC50 was determined as 7.4 ± 0.8 µM (read-out: IC50 (3^+-Processing)) and 0.017 ± 0.002 µM (read-out: IC50 (Strand Transfer)).
